# Laboratory results published in ChEMBL document CHEMBL2057129, “Evaluation of synthetic FK506 analogues as ligands for the FK506-binding proteins 51 and 52” (J Med Chem, 2012).
# Chains of the proteins cited; added tags and fusions are not shown.
# UniProt P62942, whole entry: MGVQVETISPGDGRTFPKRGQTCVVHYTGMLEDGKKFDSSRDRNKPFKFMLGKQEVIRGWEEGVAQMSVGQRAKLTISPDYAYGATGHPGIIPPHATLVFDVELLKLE
# Molecular target: Peptidyl-prolyl cis-trans isomerase FKBP1A (Homo sapiens, UniProt P62942)
# Assay: Binding affinity to FKBP12 by fluorescence polarization assay
smiles,measurement,value
CCC(C)(C)C(=O)C(=O)N1CCCC[C@H]1C(=O)O[C@H](CCc1ccc(OC)c(OC)c1)c1cccc(N)c1,IC50,100 nM
